Assay results reported in ChEMBL document CHEMBL1140163 (J Med Chem, 2008).

Chains of the proteins cited; added tags and fusions are not shown. Lines headed by an entry give the natural chain unless they say otherwise; changes in a name come on top.
UniProt P53779: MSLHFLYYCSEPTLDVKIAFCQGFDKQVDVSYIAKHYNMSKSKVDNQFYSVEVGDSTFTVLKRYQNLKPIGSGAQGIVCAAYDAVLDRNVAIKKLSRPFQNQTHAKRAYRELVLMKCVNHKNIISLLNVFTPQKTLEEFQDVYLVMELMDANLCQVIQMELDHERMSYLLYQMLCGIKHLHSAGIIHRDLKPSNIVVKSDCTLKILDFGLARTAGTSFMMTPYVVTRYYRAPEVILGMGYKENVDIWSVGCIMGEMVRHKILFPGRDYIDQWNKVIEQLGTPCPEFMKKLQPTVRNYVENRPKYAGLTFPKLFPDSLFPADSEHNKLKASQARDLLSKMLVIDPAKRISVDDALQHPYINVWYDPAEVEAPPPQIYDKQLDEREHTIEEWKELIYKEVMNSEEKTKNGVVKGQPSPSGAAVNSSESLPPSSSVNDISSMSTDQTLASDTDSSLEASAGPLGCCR
UniProt P45983: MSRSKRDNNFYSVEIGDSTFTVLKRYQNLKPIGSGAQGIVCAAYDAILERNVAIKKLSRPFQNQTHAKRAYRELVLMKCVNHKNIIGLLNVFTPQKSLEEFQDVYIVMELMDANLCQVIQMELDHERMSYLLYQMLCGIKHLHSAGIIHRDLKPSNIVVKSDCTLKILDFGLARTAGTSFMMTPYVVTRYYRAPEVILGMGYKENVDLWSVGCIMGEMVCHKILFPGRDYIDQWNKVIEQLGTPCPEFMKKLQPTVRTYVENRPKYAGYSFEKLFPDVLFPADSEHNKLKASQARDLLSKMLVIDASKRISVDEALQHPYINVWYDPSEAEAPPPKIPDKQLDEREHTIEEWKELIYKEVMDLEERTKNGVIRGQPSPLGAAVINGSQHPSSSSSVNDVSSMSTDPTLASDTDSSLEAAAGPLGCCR

Legend:
[1] = biological target: Mitogen-activated protein kinase 10 (Homo sapiens, UniProt P53779); assay: Inhibition of JNK3
[2] = biological target: Mitogen-activated protein kinase 8 (Homo sapiens, UniProt P45983); assay: Inhibition of JNK1

IC50 [1]: > 10 µM | IC50 [2]: > 10 µM
Structure (SMILES): O=C(NC1CC1)c1cccc(-c2ccc3c(N4CCOCC4)nncc3c2)c1
